Laboratory results published in patent publication EP4847503A1, “TETRAZOLE COMPOUND, PHARMACEUTICAL COMPOSITION THEREOF AND USE THEREOF” (dated 2026).

System: rat chronic constriction injury of the sciatic nerve model
Assay: Analgesic effect in rat chronic constriction injury of the sciatic nerve model (mechanical allodynia, von Frey filaments)
Conditions: 10 mg/kg PO
Method: Test Example 6 Study on the analgesic effect of the compounds of the present invention on inhibiting pain in a rat chronic constriction injury of the sciatic nerve model
A 5% DMSO + 10% Solutol + 85% Saline solution was used.
Experimental animals: Sprague-Dawley rats, weighing 80-100 g, male, purchased from Beijing Vital River Laboratory Animal Technology Co., Ltd.
• 1) The surgical procedure was performed under aseptic conditions. • 2) Surgical instruments (scissors, forceps, scalpels, surgical cotton, and sutures) were sterilized before surgery. • 3) The animals were anesthetized with Zoletil 50 + xylazine hydrochloride injection (20 mg/kg + 8 mg/kg, intraperitoneal injection). The toes of the animals were pinched to confirm complete anesthesia before surgery. An ophthalmic ointment was applied to the eyes of the animals to prevent corneal drying. • 4) The skin in the surgical area of the left hind plantar surface was disinfected three times with iodophor and 70% ethanol. The surgery was started after the skin dried. • 5) The left sciatic nerve was isolated. Four loose ligatures were tied around the sciatic nerve using 4-0 chromic gut sutures at approximately 7 mm proximal to the bifurcation, with a spacing of about 1 mm between the ligatures. • 6) The wound was sutured. • 7) The surgical instruments were cleaned and sterilized using a hot bead sterilizer. • 8) After surgery, the animals were placed on a heating pad, and 5 mL of normal saline was injected subcutaneously to prevent dehydration. After the animals were fully awake (able to move freely), they were returned to their cages.
1) On days 7 to 9 post-surgery, the animals were placed in the testing environment to habituate for at least 30 minutes per day. 2) On day 10 post-surgery, the baseline measurement of mechanical allodynia (PWT) was performed on all animals.
On day 11 post-surgery, the animals in all groups were weighed and administered according to the grouping information.
The mechanical allodynia test was performed on each animal using testing filaments at 1 h and 2 h after a single dose administration.
• 1) The rats were placed individually in a Plexiglas box with a wire mesh floor to ensure that the paws of the rats could be tested. The rats were allowed to habituate for 15 minutes before the test. • 2) After habituation, the test was performed using testing filaments on the central plantar surface of the left hind paw of the rats. The testing filaments included 8 testing strengths: 3.61 (0.4 g), 3.84 (0.6 g), 4.08 (1 g), 4.31 (2 g), 4.56 (4 g), 4.74 (6 g), 4.93 (8 g), and 5.18 (15 g). During testing, the test filament was pressed vertically against the skin with enough force to bend the filament for 6-8 seconds, with an interval of 5 seconds between each test. During testing, a rapid paw withdrawal by the animal was recorded as a pain response. Paw withdrawal when the test filament was removed from the animal's skin was also recorded as a pain response. If the animal moved or walked around, it was not recorded as a pain response, and the test should be repeated. • 3) During the test, the 4.31 (2 g) filament was used first. […] The maximum strength of the testing filaments was 5.18 (15 g). • 4) The test results were recorded in the table below, where a pain response was recorded as "x" and no pain response was recorded as "o". [formula]
Mechanical allodynia is expressed as the paw withdrawal threshold (PWT) in the rat behavioral test, which is calculated according to the following formula: 50% response threshold (g) = (10^((Xf+kδ)))/10,000 [formula] • Xf = value of the final testing filament used in the test • k = tabular value (Chaplan et al. 1994, page 62) • δ = mean difference (0.224)
Data were analyzed using Prism software (GraphPad Software, Inc.).

## CC(C)Cc1cc(F)c(-c2nn[nH]n2)c(N2CCN(Cc3cccnn3)[C@@H](C)C2)c1
Testing time point 0 h
  PWT: 2.86 g
Testing time point 1 h
  PWT: 4.76 g
Testing time point 2 h
  PWT: 6.62 g
